Laboratory results: patent US8436185B2, “Pharmaceutically acceptable salts of 2-{4-[(3S)-piperidin-3-yl]phenyl}-2H-indazole-7-carboxamide” (Merck Sharp & Dohme Corp., priority 2008, dated 2013)

Assay: physchem

SMILES	solubility [µg/mL]
Cl.NC(=O)c1cccc2cn(-c3ccc([C@@H]4CCCNC4)cc3)nc12 [Chloride salt, (3S)-3-[4-[7-(Aminocarbonyl)-2H-indazol-2-yl]phenyl]piperidinium chloride]	> 20000
Cc1ccc(S(=O)(=O)O)cc1.NC(=O)c1cccc2cn(-c3ccc([C@@H]4CCCNC4)cc3)nc12 [Example 1, (3S)-3-{4-[7-(Aminocarbonyl)-2H-indazol-2-yl]phenyl}piperidinium 4-methylbenzenesulfonate]	800
